Results on 4 molecules are retold here after patent publication US20240360219A1 (FBD BIOLOGICS, published 2024).

One test has as its target T1, human CD47 (human, UniProt Q08722).
T1 construct: whole, on cells; also called CD47 tf CHO-S; cluster of differentiation 47
In words: flow cytometry on CD47 tf CHO-S cells, PE anti-human IgG.

In the next test the target is T2, human TGFβ3 (human, UniProt P10600 301-412).
T2 construct: also called hTGFβ3
T2 sequence (looked up): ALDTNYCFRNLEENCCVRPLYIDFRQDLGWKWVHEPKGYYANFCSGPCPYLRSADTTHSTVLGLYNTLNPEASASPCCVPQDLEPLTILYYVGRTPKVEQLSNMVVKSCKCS
Kind of test: ELISA, plate coated with 1 µg/ml human TGFβ3, HRP secondary antibody, OD 450 nm.

Test [1] concerns the target T3, human PD-L1 (human).
T3 construct: whole, on cells; also called PDL1 tf CHO-S; PD-L1 tf OE19
In words: flow cytometry blocking assay on PD-L1 tf CHO-S cells; competitor: fixed concentration of biotinylated PD1_G4 (biotin-PD1-ECD-Fc), streptavidin-PE.

For test [2], the target named is T4, human TGFβ2 (human, UniProt P61812 303-414).
T4 construct: also called hTGFβ2
T4 sequence (looked up): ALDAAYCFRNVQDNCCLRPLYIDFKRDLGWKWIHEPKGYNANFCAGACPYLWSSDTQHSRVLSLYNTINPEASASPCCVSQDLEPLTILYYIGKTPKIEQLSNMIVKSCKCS
In words: ELISA, plate coated with 1 µg/ml human TGFβ2, HRP secondary antibody, OD 450 nm; the printed EC50 lies above the highest concentration shown (500 nM).

The target in test [3] is T3, human PD-L1. Kind of test: flow cytometry on PDL1 tf CHO-S cells, PE anti-human IgG.
Test [4] addresses T4, human TGFβ2. In words: ELISA, plate coated with 1 µg/ml human TGFβ2, HRP secondary antibody, OD 450 nm; curve without plateau.

B1: PD1_G4 (Fc fusion)
chain: DSPDRPWNPPTFSPALLVVTEGDNATFTCSFSNTSESFVLNWYRMSPSNQTDKLAAFPEDRSQPGQDCRFRVTQLPNGRDFHMSVVRARRNDSGTYLCGAISLAPKAQIKESLRAELRVTERRAEVPTAHPSPSPRPAGQFQTLVESKYGPPCPPCPAPEFLGGPSVFLFPPKPKDTLMISRTPEVTCVVVDVSQEDPEVQFNWYVDGVEVHNAKTKPREEQFNSTYRVVSVLTVLHQDWLNGKEYKCKVSNKGLPSSIEKTISKAKGQPREPQVYTLPPSQEEMTKNQVSLTCLVKGFYPSDIAVEWESNGQPENNYKTTPPVLDSDGSFFLYSRLTVDKSRWQEGNVFSCSVMHEALHNHYTQKSLSLSLGK
notes: Control protein; also called PD1-ECD-Fc
Take B1: in the test with human CD47, the binding result is on record as “no binding (tested: 500 nM)”.

B2: HCB301-1 (Fc fusion)
chain: [about 120 residues not shown]KPSGSGGSGGSGGSGGSGGSGDSPDRPWNPPTFSPALLVVTEGDNATFTCSFSNTSESFVLNWYRMSPSNQTDKLAAFPEDRSQPGQDCRFRVTQLPNGRDFHMSVVRARRNDSGTYLCGAISLAPKAQIKESLRAELRVTERRAEVPTAHPSPSPRPAGQFQTLVGGGGSGGGGSGGGGSDSPDRPWNPPTFSPALLVVTEGDNATFTCSFSNTSESFVLNWYRMSPSNQTDKLAAFPEDRSQPGQDCRFRVTQLPNGRDFHMSVVRARRNDSGTYLCGAISLAPKAQIKESLRAELRVTERRAEVPTAHPSPSPRPAGQFQTLVESKYGPPCPPCPAPEFLGGPSVFLFPPKPKDTLMISRTPEVTCVVVDVSQEDPEVQFNWYVDGVEVHNAKTKPREEQFNSTYRVVSVLTVLHQDWLNGKEYKCKVSNKGLPSSIEKTISKAKGQPREPQVYTLPPSQEEMTKNQVSLTCLVKGFYPSDIAVEWESNGQPENNYKTTPPVLDSDGSFFLYSRLTVDKSRWQEGNVFSCSVMHEALHNHYTQKSLSLSLGAGGGGSGGGGSGGGGSGGGGSGIPPHVQKSVNNDMIVTDNNGAVKFPQLCKFCDVRFSTCDNQKSCMSNCSITSICEKPQEVCVAVWRKNDENITLETVCHDPKLPYHDFILEDAASPKCIMKEKKKPGETFFMCSCSSDECNDNIIFSEEYNTSNPD
notes: expressed in CHO-S cells
On to B2, for which the EC50 with human TGFβ3 is 1.76 nM; with human TGFβ2 [2] it was 1130 nM. Also, in the test with human PD-L1 [1], the “IC50 (read off the curve)” value was approximately 2 nM.

B3: HCB301-3 (Fc fusion)
chain: [about 120 residues not shown]KPSGSGGSGGSGGSGGSGGSGDSPDRPWNPPTFSPALLVVTEGDNATFTCSFSNTSESFVLNWYRMSPSNQTDKLAAFPEDRSQPGQDCRFRVTQLPNGRDFHMSVVRARRNDSGTYLCGAISLAPKAQIKESLRAELRVTERRAEVPTAHPSPSPRPAGQFQTLVESKYGPPCPPCPAPEFLGGPSVFLFPPKPKDTLMISRTPEVTCVVVDVSQEDPEVQFNWYVDGVEVHNAKTKPREEQFNSTYRVVSVLTVLHQDWLNGKEYKCKVSNKGLPSSIEKTISKAKGQPREPQVYTLPPSQEEMTKNQVSLTCLVKGFYPSDIAVEWESNGQPENNYKTTPPVLDSDGSFFLYSRLTVDKSRWQEGNVFSCSVMHEALHNHYTQKSLSLSLGAGGGGSGGGGSGGGGSGGGGSGIPPHVQKSVNNDMIVTDNNGAVKFPQLCKFCDVRFSTCDNQKSCMSNCSITSICEKPQEVCVAVWRKNDENITLETVCHDPKLPYHDFILEDAASPKCIMKEKKKPGETFFMCSCSSDECNDNIIFSEEYNTSNPD
notes: expressed in CHO-S cells
For B3, the binding result in the test with human PD-L1 [3] and in the test with human CD47 was “binds” each time. The molecule further yielded an EC50 with human TGFβ3 of 1.45 nM.

B4: HCB301-4 (Fc fusion)
chain: DSPDRPWNPPTFSPALLVVTEGDNATFTCSFSNTSESFVLNWYRMSPSNQTDKLAAFPEDRSQPGQDCRFRVTQLPNGRDFHMSVVRARRNDSGTYLCGAISLAPKAQIKESLRAELRVTERRAEVPTAHPSPSPRPAGQFQTLVGSGGSGGSGGSGGSGGSGEE[about 120 residues not shown]KPSESKYGPPCPPCPAPEFLGGPSVFLFPPKPKDTLMISRTPEVTCVVVDVSQEDPEVQFNWYVDGVEVHNAKTKPREEQFNSTYRVVSVLTVLHQDWLNGKEYKCKVSNKGLPSSIEKTISKAKGQPREPQVYTLPPSQEEMTKNQVSLTCLVKGFYPSDIAVEWESNGQPENNYKTTPPVLDSDGSFFLYSRLTVDKSRWQEGNVFSCSVMHEALHNHYTQKSLSLSLGAGGGGSGGGGSGGGGSGGGGSGIPPHVQKSVNNDMIVTDNNGAVKFPQLCKFCDVRFSTCDNQKSCMSNCSITSICEKPQEVCVAVWRKNDENITLETVCHDPKLPYHDFILEDAASPKCIMKEKKKPGETFFMCSCSSDECNDNIIFSEEYNTSNPD
notes: expressed in CHO-S cells
On to B4, for which the concentration for a half-maximal effect (EC50) with human TGFβ3 stood at 1.5 nM; with human TGFβ2 [4] it was 217 nM.
